From PubChem
Nrf2 ARE act = Nrf2 pathway activation | Potency, µM (titrated, usually from 46.1 µM), for inactives: top-dose activation, actives largely listed as activators | 0.31% of 410,000 active | AREc32 ARE-luciferase reporter (MCF7-derived line), luminescence, 24 h; note: potency is the fitted concentration of half-maximal effect; % of control where 0% means no effect; nearly all actives have a fitted effect of over 65% in size
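Cells of the AREc32 ARE-luciferase line are plated in OPTI-MEM containing 5% FBS and left overnight at 37 deg C. Compounds are pinned in, incubation continues 24 hr, and firefly luciferase signal is then measured.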
A549 tox = A549 cytotoxicity, counter-screen for Nrf2 inhibitors. 0.16% of 390,000 active. AID 504648. A549 ARE-Fluc cells, CellTiter-Fluor viability, 18-24 h. Potency, µM (titrated, usually from 46 µM), for the others: at the top dose activity change, negative = cytotoxicity, hits mostly inhibitors; note: potency is the fitted concentration of half-maximal effect; % is set by controls: 0 for no effect and ±100 for the full control effect
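A549 ARE_Fluc cells in 5% FBS OPTI-MEM were exposed to compounds in concentration-response for 18-24 h at 37 deg C. Viability was read by CellTiter-Fluor fluorescence (Ex 405/Em 525) after 30 min, before the luciferase read.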
B2AR arrestin = beta2AR (human) beta-arrestin recruitment activity | Potency, µM (top dose mostly 46.1 µM), inactives show top-dose activation, actives largely listed as activators | beta-arrestin recruitment to beta2AR, cell-based reporter | 0.02% of 330,000 active | P07550;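 note: potency is the fitted concentration of half-maximal effect; 0% = DMSO controls and full agonism = EC100 isoproterenol or metaproterenol; nearly all actives have a fitted effect of over 65% in size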
miR-21 FLuc = miR-21 reporter, rising signal | 340,000 tested, under 10 active | AID 2288 | HeLa miR-21 FLuc reporter, luciferase, 48 h | Potency, µM (titrated, usually from 38.3 µM), for inactives: at the highest dose reporter change, positive = more light; active = well fitted rising curve with a large enough effect; inconclusive = small, poorly fitted or top-dose-only effect; inactive = no such curve, though single readings can be large or run the other way;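 further: % of control where 0% means no effect; miR-21 action dims this reporter so a rising signal means less miR-21 action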
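HeLa cells stably expressing CMV-driven firefly luciferase with a downstream miR-21 binding sequence, endogenously expressing miR-21, were treated with titrations (up to about 40uM final) for 48 hours at 37 degree Celsius. Luciferase luminescence was read after lysis.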
Nrf2 block = blocks Nrf2 signaling; A549 ARE-Fluc reporter, luciferase luminescence, 18-24 h; Potency, µM (doses to about 46 µM), without a hit: at the top dose activity change, negative = inhibition, actives largely listed as inhibitors; 2.1% of 360,000 active; note: potency is the fitted concentration of half-maximal effect; % is set by controls: 0 for no effect and ±100 for the full control effect; nearly all actives have a fitted effect of over 60% in size
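Quantitative HTS in A549 cells stably bearing an antioxidant response element-firefly luciferase construct. Inhibition of Nrf2-driven transcription was scored by luminescence after 18-24 h of compound exposure at 37 °C.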
An asterisk follows results filed as active; u = inconclusive; x = no result; [ ] = remark or other dose. A selection: hits, their analogues and other compounds. The true share with any hit is near 2.2%. Unless noted, calls come from the whole dose curve; as a rule, active = well fitted curve in the direction sought with a large enough effect; inconclusive = small, poorly fitted or top-dose-only effect, or another doubt; inactive = no such curve, though single readings can be large; an effect the other way counts as inactive or inconclusive.

| No. | canonical_smiles | A549 tox | Nrf2 ARE act | B2AR arrestin | miR-21 FLuc | Nrf2 block |
| --- | --- | --- | --- | --- | --- | --- |
| 1 | COc1ccc(C(=O)n2nc(-c3ccco3)nc2NCc2cccs2)cc1OC | 5% | 8% | x | -26% | 4% |
| 2 | COc1ccc(C2=Nn3c(nnc3-c3ccccc3O)SC2)cc1OC | 1% | x | x | x | 0% |
| 3 | Cc1ccc(OCCSc2nc3ccccc3n2CC(=O)N2CCOCC2)cc1 | 0% | 3% | x | u | 18µM* |
| 4 | COc1ccccc1OCCSc1nc2ccccc2n1CCC(=O)O | 5% | 0% | -1% | -7% | -4% |
| 5 | COC(=O)Cn1c(SCCOc2ccccc2Cl)nc2ccccc21 | -10% | 3% | x | 12% | 23µM* |
| 6 | COc1ccc(CCNC(=O)COc2ccc(S(=O)(=O)NCC(C)C)cc2Cl)cc1OC | -15% | -1% | 0% | -2% | 21µM* |
| 7 | CCOc1ccc(N(C)S(=O)(=O)c2ccc(C)c(C(=O)NCc3ccccc3OC)c2)cc1 | 0% | 0% | -1% | x | 23µM* |
| 8 | COc1ccc(CCNC(=O)CNS(=O)(=O)c2ccc(F)c(Cl)c2)cc1OC | -2% | -1% | -1% | 0% | 1% |
| 9 | COc1ccc(CCNC(=O)COc2ccc(N(C)S(=O)(=O)c3ccc(C)cc3)cc2)cc1OC | -3% | 2% | 0% | 7% | 26µM* |
| 10 | COc1ccc(CCNC(=O)c2ccc(CS(=O)(=O)c3ccc(C)cc3)o2)cc1OC | 8% | -1% | 0% | u | 21µM* |
| 11 | Cc1ccc(C)c(Nc2nc3c(S(=O)(=O)c4ccc(Br)cc4)nnn3c3ccsc23)c1 | u | 0% | x | u | u |
| 12 | Cc1ccc(C)c(Nc2nc3c(S(=O)(=O)c4ccc(C(C)C)cc4)nnn3c3ccsc23)c1 | u | 0% | x | u | 16µM* |
| 13 | O=C(Nc1sc2c(c1C(=O)O)CCCC2)c1cccs1 | u | 5% | 0% | 16% | u |
| 14 | O=C(Nc1sc2c(c1C(=O)NCC1CCCO1)CCCC2)c1cccs1 (centres undefined) | -14% | 5% | 0% | -9% | 21µM* |
| 15 | CCN1/C(=C/C=C/c2oc3ccc(-c4ccccc4)cc3[n+]2CC)Oc2ccc(-c3ccccc3)cc21 | 15µM* | -2% | -1% | u | 5.8µM* |

Complete entries, quoted from the list:
Profile of Cc1ccc(C)c(Nc2nc3c(S(=O)(=O)c4ccc(C(C)C)cc4)nnn3c3ccsc23)c1 : A549 tox: u; Nrf2 ARE act: 0%; B2AR arrestin: x; miR-21 FLuc: u; Nrf2 block: 16µM*
Profile of CCN1/C(=C/C=C/c2oc3ccc(-c4ccccc4)cc3[n+]2CC)Oc2ccc(-c3ccccc3)cc21 : A549 tox: 15µM*; Nrf2 ARE act: -2%; B2AR arrestin: -1%; miR-21 FLuc: u; Nrf2 block: 5.8µM*

Some entries already given, reduced to A549 tox:
item	molecule	A549 tox
15	CCN1/C(=C/C=C/c2oc3ccc(-c4ccccc4)cc3[n+]2CC)Oc2ccc(-c3ccccc3)cc21	15µM*
7	CCOc1ccc(N(C)S(=O)(=O)c2ccc(C)c(C(=O)NCc3ccccc3OC)c2)cc1	0%
9	COc1ccc(CCNC(=O)COc2ccc(N(C)S(=O)(=O)c3ccc(C)cc3)cc2)cc1OC	-3%

(more compounds)
| No. | canonical_smiles | A549 tox | Nrf2 ARE act | B2AR arrestin | miR-21 FLuc | Nrf2 block |
| --- | --- | --- | --- | --- | --- | --- |
| 16 | CCCCN1C(=O)/C(=C/C=C2\Oc3ccccc3N2CC)SC1=S | u | 0% | 0% | -4% | -10% |
| 17 | Cc1nn(-c2ccc3nnc(C)n3n2)c(C)c1CCC(=O)Nc1ccc(OC(F)(F)F)cc1 | 2% | 0% | x | 0% | x |
| 18 | Cc1cccc(N2CC(c3nc4ccccc4n3CCC3CCCCC3)CC2=O)c1 (centres undefined) | 0% | 0% | x | 3% | -18% |
| 19 | Cc1cc(C)cc(NC(=O)CSc2nc(=O)n(Cc3ccccn3)c3c2CCC3)c1 | -1% | 1% | x | 4% | x |
| 20 | O=C(CSc1nc(=O)n(Cc2ccccn2)c2c1CCC2)Nc1ccccc1 | 1% | 3% | x | -1% | 26µM* |
| 21 | CCCn1c(CNc2ccccc2O)nc2ccccc21 | -6% | 14µM* | 6% | -4% | 14% |
| 22 | CCCn1c(CNC(=O)c2ccc(F)cc2)nc2ccccc21 | 2% | 0% | x | 2% | -3%[9.27 µM] |
| 23 | COc1ccc(-c2nc(N3CCN(S(=O)(=O)c4ccccc4)CC3)c3ccccc3n2)cc1 | -5% | x | x | x | -14% |
| 24 | Cc1csc(N(C)C(=O)CSc2nnc(COc3cccc4ccccc34)o2)n1 | 0% | 0% | 0% | 9% | 21µM* |
| 25 | Cc1ccc(C(C)C)cc1NC(=O)Nc1ccc([N+](=O)[O-])cc1 | u | -1% | -1% | u | 21µM* |
| 26 | O=C(Nc1ccc([N+](=O)[O-])cc1NC(=O)c1ccccc1)c1ccccc1 | 0% | -2% | x | x | -5% |
| 27 | Cc1ccc([N+](=O)[O-])cc1NC(=O)c1ccccc1 | -2% | 7.9µM* | 0% | 0% | 1% |
| 28 | Cc1ccc(SCc2ccc(C(=O)Nc3cc([N+](=O)[O-])ccc3C)cc2)cc1 | -9% | 0% | 0% | -12% | 15µM* |
| 29 | COc1cccc(C(=O)N(Cc2nc(-c3ccc(Cl)cc3)no2)C(C)C)c1OC | -7% | 0% | x | 3% | -24% |
| 30 | COC(=O)c1ccc2c(c1)N(CC(=O)Nc1cccc(C(F)(F)F)c1)C(=O)c1ccccc1S2 | -6% | -1% | x | -1% | x |

(cont.)
| No. | canonical_smiles | A549 tox | Nrf2 ARE act | B2AR arrestin | miR-21 FLuc | Nrf2 block |
| --- | --- | --- | --- | --- | --- | --- |
| 31 | Cc1oc(-c2ccc(C(=O)Nc3ccc(F)cc3F)cc2)nc1COc1ccccc1 | 4% | -1% | x | -7% | u |
| 32 | CCN(CC)c1ccc2nc3ccc(N)cc3[n+](-c3ccccc3)c2c1 | 18µM* | -2% | 0% | x | 15µM* |
| 33 | CCN(CC)c1ccc2nc3ccccc3[n+](CC)c2c1 | 8.2µM* | -2% | 0% | u | 9.2µM* |
| 34 | Nc1cccc(-c2cn3ccsc3n2)c1 | 5% | 4% | x | -50% | x |
| 35 | COC(=O)[C@@]12OC[C@]34[C@H]([C@@H](O)[C@@H]1O)[C@@]1(C)C(=O)C(O[C@@H]5OC(CO)[C@@H](O)[C@@H](O)[C@@H]5O)=C[C@@H](C)[C@@H]1C[C@H]3OC(=O)[C@H](OC(=O)/C=C(\C)C(C)(C)OC(C)=O)[C@@H]24 (some centres undefined) | u | -4% | 0% | x | 2.9µM* |
| 36 | O=C(Nc1ccc(Oc2cccc(C(F)(F)F)c2)nc1)c1cccs1 | 1% | 0% | 0% | 25% | 16µM* |
| 37 | O=C(Nc1ccc(Oc2cccc(C(F)(F)F)c2)nc1)c1ccccc1 | -3% | 0% | -1% | 15% | u |
| 38 | COC(=O)c1sccc1NC(=O)c1ccc(C)o1 | -3% | u | 0% | -8% | -8% |
| 39 | COC(=O)c1sccc1NC(=O)Nc1cccc(OC)c1 | -4% | 22% | 0% | -5% | 1% |
| 40 | COC(=O)c1sccc1NC(=O)COc1ccccc1Cl | 3% | 13µM* | 6% | -55% | u |
| 41 | COC(=O)c1sccc1NC(=O)c1cccc(OC)c1 | 3% | 6.3µM* | 0% | -6% | 14% |
| 42 | COC(=O)c1sccc1NC(=O)c1ccc(Br)o1 | 0% | 5.6µM* | -1% | -5% | 27% |
| 43 | CCOc1ccccc1NC(=O)Nc1ccsc1C(=O)OC | -1% | 13% | 0% | -1% | -7% |
| 44 | COC(=O)c1ccccc1NC(=O)COc1ccccc1[N+](=O)[O-] | 9% | 5µM* | 0% | -22% | u |
| 45 | CC(C)c1ccc(NC(=O)CN2C(=O)CSc3ccc(S(=O)(=O)N4CCCC4)cc32)cc1 | -4% | 5% | x | -2% | u |

Continuation:
| No. | canonical_smiles | A549 tox | Nrf2 ARE act | B2AR arrestin | miR-21 FLuc | Nrf2 block |
| --- | --- | --- | --- | --- | --- | --- |
| 46 | CC(C)(C)c1ccc(S(=O)(=O)N2CCN(c3nc(-c4ccccc4)nc4ccccc34)CC2)cc1 | 19% | x | x | x | 17% |
| 47 | Cc1ccc(CSc2nc3cccnc3n2Cc2nc(-c3ccccc3F)oc2C)cc1 | -21% | 0% | x | 12% | u |
| 48 | COC(=O)c1sccc1NC(=O)c1ccccc1 | 1% | 7.1µM* | 0% | -7% | u |
| 49 | COC(=O)c1sccc1NC(=O)c1ccccc1C(=O)O | -2% | -1% | x | x | 4% |
| 50 | CCn1cnc2c(Nc3cc(F)cc(F)c3)nc(C(=O)COc3c(F)c(F)cc(F)c3F)nc21 | 0% | x | x | x | 15% |
